Test results as given in US9629850B2, “Combination of MEK inhibitors and selective inhibitors of Aurora A kinase” (priority 2011, dated 2017).

How the values were obtained:
[1] = system: Panc-1 Human Pancreatic Carcinoma Xenografts; assay: Antitumor activity in female nude mice bearing Panc-1 xenografts; conditions: MLN8273 30 mg/kg single agent; Day 5
[2] = system: NCI-H23 Non Small Cell Lung Carcinoma Xenografts; assay: Anti-tumor activity in female nude mice bearing NCI-H23 xenografts

COc1cc(Nc2ncc3c(n2)-c2ccc(Cl)cc2C(c2c(F)cccc2OC)=NC3)ccc1C(=O)[O-].O.[Na+] [MLN8237]
mean maximum body weight loss [1]: 0.2%
weight loss ([2]; MLN8237 20 mg/kg PO QD for 21 days): no weight loss
weight loss ([2]; MLN8237 30 mg/kg PO for 21 days): no weight loss
